{"sequences": {"note": "By UniProt entry, the sequences of proteins in these tests, tags left out. Where a name states a change or a piece, a line headed by the entry shows the natural chain unless it says otherwise.", "UniProt P10275": "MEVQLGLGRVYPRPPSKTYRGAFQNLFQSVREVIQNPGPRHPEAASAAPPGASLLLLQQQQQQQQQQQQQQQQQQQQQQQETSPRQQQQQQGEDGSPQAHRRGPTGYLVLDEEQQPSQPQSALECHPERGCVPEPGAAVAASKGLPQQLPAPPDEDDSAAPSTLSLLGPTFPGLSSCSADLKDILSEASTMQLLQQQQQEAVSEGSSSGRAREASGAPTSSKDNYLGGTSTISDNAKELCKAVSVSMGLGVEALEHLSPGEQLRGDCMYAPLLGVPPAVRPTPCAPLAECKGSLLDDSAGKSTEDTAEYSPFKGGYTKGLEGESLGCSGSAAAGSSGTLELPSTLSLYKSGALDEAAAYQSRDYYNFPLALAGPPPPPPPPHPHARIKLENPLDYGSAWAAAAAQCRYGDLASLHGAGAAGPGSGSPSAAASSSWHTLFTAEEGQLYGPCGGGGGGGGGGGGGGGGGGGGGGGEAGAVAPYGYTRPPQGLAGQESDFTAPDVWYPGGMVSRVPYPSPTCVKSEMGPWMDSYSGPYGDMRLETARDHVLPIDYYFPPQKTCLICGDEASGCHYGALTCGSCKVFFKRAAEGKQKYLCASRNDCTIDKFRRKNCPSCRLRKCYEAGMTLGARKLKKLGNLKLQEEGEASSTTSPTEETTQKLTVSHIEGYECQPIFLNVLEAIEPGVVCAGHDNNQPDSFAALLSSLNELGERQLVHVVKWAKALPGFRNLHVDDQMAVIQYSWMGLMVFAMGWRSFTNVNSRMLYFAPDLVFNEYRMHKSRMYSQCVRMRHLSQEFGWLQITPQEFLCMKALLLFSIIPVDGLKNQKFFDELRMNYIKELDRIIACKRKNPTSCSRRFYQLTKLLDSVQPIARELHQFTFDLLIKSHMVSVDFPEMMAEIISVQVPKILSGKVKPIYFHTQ"}, "source": "ChEMBL document CHEMBL5528070", "about": "“Design and Synthesis of Dual-Target Inhibitors Targeting Androgen Receptors and Glucocorticoid Receptors to Overcome Antiandrogen Resistance in Castration-Resistant Prostate Cancer” (J Med Chem, 2024)", "key": {"[1]": {"test": "Antiproliferative activity against African green monkey COS-7 cells assessed as reduction in cell viability measured after 72 hrs by CCK-8 method", "conditions": "chlorocebus aethiops"}, "[2]": {"system": "LNCaP C4-2", "test": "Antiproliferative activity against human C4-2 cells assessed as reduction in cell viability measured after 72 hrs by CCK-8 method", "conditions": "LNCaP C4-2, 72 h"}, "[3]": {"system": "DU-145", "test": "Antiproliferative activity against human DU-145 cells assessed as reduction in cell viability measured after 72 hrs by CCK-8 method", "conditions": "DU-145, 72 h"}, "[4]": {"system": "LNCaP", "test": "Antiproliferative activity against human LNCaP cells assessed as reduction in cell viability measured after 72 hrs by CCK-8 method"}, "[5]": {"system": "PC-3", "test": "Antiproliferative activity against human PC-3 cells assessed as reduction in cell viability measured after 72 hrs by CCK-8 method", "conditions": "PC-3, 72 h"}, "[6]": {"target": "T1, Androgen receptor (Homo sapiens, UniProt P10275)"}, "[7]": {"target": "T1, Androgen receptor", "remark": "listed apart in the source"}, "[8]": {"test": "in vivo", "conditions": "Sprague-Dawley, rat, po, 40 mg/kg"}, "[9]": {"system": "CWR22R", "test": "Antiproliferative activity against human 22Rv1 cells assessed as reduction in cell viability measured after 72 hrs by CCK-8 method", "conditions": "22Rv1, 72 h"}, "[10]": {"test": "in vivo", "conditions": "Sprague-Dawley, rat, po, 40 mg/kg", "remark": "listed apart in the source"}}, "data": [{"smiles": "Cc1ccc(NC(=O)c2ccc(NC(=O)c3cccc(S(=O)(=O)N4CCCc5ccccc54)c3)s2)cc1", "values": [{"measurement": "CC50 at 72 h", "setting": "[1]", "value": 12.1, "unit": "µM"}, {"measurement": "CC50", "setting": "[2]", "value": 2.38, "unit": "µM"}, {"measurement": "CC50", "setting": "[3]", "value": 3.38, "unit": "µM"}, {"measurement": "CC50", "setting": "[4]", "value": 3.96, "unit": "µM"}, {"measurement": "CC50", "setting": "[5]", "value": 2.3, "unit": "µM"}]}, {"smiles": "N#Cc1ccc(NC(=O)c2cccc(S(=O)(=O)N3CCCc4ccccc43)c2)cc1", "values": [{"measurement": "CC50 at 72 h", "setting": "[1]", "value": "> 50", "unit": "µM"}, {"measurement": "IC50", "setting": "[6]", "value": 0.458, "unit": "µM"}, {"measurement": "IC50", "setting": "[7]", "value": 0.13, "unit": "µM"}, {"measurement": "CC50", "setting": "[2]", "value": 7.9, "unit": "µM"}, {"measurement": "CC50", "setting": "[3]", "value": 33.3, "unit": "µM"}, {"measurement": "CC50", "setting": "[4]", "value": 2.45, "unit": "µM"}, {"measurement": "half-life at 8 h", "setting": "[8]", "value": 1.16, "unit": "h"}, {"measurement": "CC50", "setting": "[9]", "value": 11.6, "unit": "µM"}, {"measurement": "Tmax at 8 h", "setting": "[10]", "value": 2.5, "unit": "h"}, {"measurement": "CC50", "setting": "[5]", "value": 27.8, "unit": "µM"}]}]}
